Experimental data published in patent US7592188B2, “Live cell biosensors” (The Scripps Research Institute, priority 2004, dated 2009).

Test: Photophysical properties of dyes in various solvents (absorbance, emission, quantum yield)
Assay type: physicochemical
Conditions: reactive forms
Description: Analytical grade reagents were purchased from major suppliers. […] Emission and excitation spectra were obtained using a Spex Fluorolog 2 spectrofluorometer at 23° C. […] Demas et al., J. Phys. […] All operations with dyes were performed under dim light. Flasks containing dyes were wrapped with aluminum foil.

ε × Φ (solvent BuOH): 28000
ε × Φ (solvent MeOH): 9000
Substance: Sodium 3-[(2E)-6-[({2-[(2,5-Dioxopyrrolidin-1-yl)oxy]-2-oxoethoxy}-acetyl)methylaminol]-2-[(2E,4Z)-4-(1,1-dioxido-3-oxo-1-benzothien-2(3H)-ylidene)but-2-enylidene]-1,3-benzothiazol-3(2H)-yl]propane-1-sulfonate [dye 2f]
